# AlphaSeq binding of Ab-14 heavy chain variants to a spike HR2 peptide

Values reported by Engelhart et al. 2022, doi:10.1038/s41597-022-01779-4 (FLAb copy).

The target is the same throughout: PDVDLGDISGINAS, from the HR2 region of SARS-CoV-2 spike.

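The starting antibody came from a phage panning campaign against this peptide. Variants in AAYL49 differ from the parent at up to three CDR positions; double and triple changes were sampled at random. The scFvs were displayed on barcoded MATa yeast, the peptide on MATalpha yeast. Pairs that bind mate more often; barcode pairs of the diploids are counted by sequencing. Scores were corrected for input abundance and mapped to Kd with protein pairs of known affinity run in the same pool. There are three technical replicates.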

The variants keep the light chain, the linker and the frameworks of Ab-14 (scFv order VH, three GGGGS repeats, VL).
VH: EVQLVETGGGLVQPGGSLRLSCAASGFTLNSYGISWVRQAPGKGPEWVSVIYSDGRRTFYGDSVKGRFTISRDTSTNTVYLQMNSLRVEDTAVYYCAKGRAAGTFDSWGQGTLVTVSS
VL: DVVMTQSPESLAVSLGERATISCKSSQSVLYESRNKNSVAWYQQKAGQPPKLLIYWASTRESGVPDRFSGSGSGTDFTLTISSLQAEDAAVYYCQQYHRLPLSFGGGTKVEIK

Positions count from residue 1 of the parent VH; G55I puts I in place of G.
The read-out is the apparent dissociation constant on a log10 scale (nM): the lower, the stronger.
"ND" marks a missing value. The strain was present, yet no cells mated with the target were sequenced in that replicate, which points to weak or no binding.
For reference, the parent read 0.65 as the reference entry and 4.11 (one replicate of three) as a member of this library.
As a blank, each scFv also met three strains without target: over library AAYL49, 15% of these pairings were detected, typically at 4.06 and seldom below 2.83.

changes,log10 Kd (nM) by replicate
G55I/K65A/F105R,ND ND ND
I51L/R56D/F59P,ND ND ND
T28V/D54N/A102W,ND 4.09 ND
V50L/I51M/T58F,ND ND ND
Y32A/I51P,4.61 5.13 5.88
F27C/V64K,ND ND 2.75
S35A/D54T/G103I,ND ND ND
V64G/R100Y,2.56 2.82 ND
G26W/F27L/G99T,ND ND ND
G61V/A101N,1.34 1.08 1.35
Y52F/D62V/S63D,ND 2.64 ND
S53K/R56C/G99R,2.81 ND ND
A102W/D106M,ND ND ND
D62S/V64I/R100L,3.38 3.85 ND
G61P/S63F/D106W,ND ND ND
V64R/G99A/A101F,ND ND ND
T28K/Y52T/G99E,ND ND ND
F27N/S53N/R57W,ND ND 5.94
Y60E/A102L/G103T,ND 4.11 ND
G61D/S107P,ND ND ND
G26T/K65Y,5.94 2.81 2.91
Y52G/R57Y/F105C,ND ND ND
I34N/S53N/A101H,ND ND ND
I34A/F59A/Y60D,ND 4.99 ND
F27I/V50G,4.04 2.94 ND
Y52T/S63L/K65I,ND ND 5.04
G26H/Y32A/S35P,4.15 ND ND
G26A/Y60C/D62G,ND 4.77 4.33
L29Y/F59C/G103I,ND ND ND
F59C/G99K/R100N,ND 3.55 ND
V50E/S63E/K65C,ND 3.43 ND
F59L/R100D/D106I,ND ND ND
Y32K/I34Q/T104K,ND ND ND
R57C/T104Y/D106L,ND ND ND
S35F/K65L/A101K,ND ND ND
V50Q/R56N/S107V,ND 2.79 ND
F27M/I34N/A102C,ND ND ND
G26L/I34G/R56Q,ND ND 3.77
Y32T/T58E/F59S,3.94 ND 3.70
V64I/A101T/A102F,ND ND ND

The first 4 variants above that were never detected:

| changes | log10 Kd (nM) by replicate |
|---|---|
| G55I/K65A/F105R | ND ND ND |
| I51L/R56D/F59P | ND ND ND |
| V50L/I51M/T58F | ND ND ND |
| S35A/D54T/G103I | ND ND ND |